The values below are quoted from earlier work in article PMC4690140.

The target in data set [1] is NaV1.4 (UniProt P15390).
Data set [2] addresses NaV1.3 (UniProt P08104).

The Kd is a measure of binding affinity in units of concentration. As to “delta-conotoxin SVIE (from UniProt Q9XZK5)”, the Kd in data set [1] was 500 nM.

With “mu-conotoxin BuIIIB (from UniProt C1J5M6)”, the Kd in data set [2] is 200 nM.
